Target: T1, CD123 on the surface of CHO-K1 cells (UniProt P26951 19-378)
T1 construct: whole, on cells; Negative control cells that express CD123 but not CD22; also called CHOK1-CD123; cell surface CD123
T1 sequence (looked up): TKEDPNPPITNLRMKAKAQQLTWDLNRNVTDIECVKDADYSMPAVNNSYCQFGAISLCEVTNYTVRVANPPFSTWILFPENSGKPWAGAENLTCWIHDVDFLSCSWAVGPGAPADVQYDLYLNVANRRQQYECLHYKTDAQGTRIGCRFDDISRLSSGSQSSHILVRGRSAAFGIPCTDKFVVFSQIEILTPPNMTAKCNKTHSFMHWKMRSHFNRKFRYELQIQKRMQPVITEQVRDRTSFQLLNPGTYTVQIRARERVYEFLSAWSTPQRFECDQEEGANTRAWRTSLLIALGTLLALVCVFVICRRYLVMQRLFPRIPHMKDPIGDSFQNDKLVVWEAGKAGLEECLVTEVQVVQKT
Assay: FACS on CHO-K1 cells expressing CD123, anti-hFc Alexa 488

EC50: 0.017 nM
B1: CSL362 (anti-CD123) (antibody, V domains shown)
VH: EVQLVQSGAEVKKPGESLKISCKGSGYSFTDYYMKWARQMPGKGLEWMGDIIPSNGATFYNQKFKGQVTISADKSISTTYLQWSSLKASDTAMYYCARSHLLRASWFAYWGQGTMVTVSS
VL: DIVMTQSPDSLAVSLGERATINCESSQSLLNSGNQKNYLTWYQQKPGQPPKPLIYWASTRESGVPDRFSGSGSGTDFTLTISSLQAEDVAVYYCQNDYSYPYTFGQGTKLEIKR
